# Yeast mating assay 2: variants of the scFv Ab-91

Values reported by Engelhart et al. 2022, doi:10.1038/s41597-022-01779-4 (FLAb copy).

Binding partner: SARS-CoV-2 spike HR2 peptide, sequence PDVDLGDISGINAS.

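The starting antibody came from a phage panning campaign against this peptide. The library (AAYL51) carries one to three amino acid substitutions per variant, with no insertions or deletions. AlphaSeq pools MATa yeast showing the antibodies with MATalpha yeast showing the peptide. Pairs that bind mate more often; barcode pairs of the diploids are counted by sequencing. A regression on co-assayed BCL2-family reference pairs converts the normalised counts of each replicate to an apparent Kd. The assay was run in three technical replicates.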

Ab-91 is the parent antibody, in scFv form: VL, then a (GGGGS)3 linker, then VH. The light chain is unchanged in all variants.
VL: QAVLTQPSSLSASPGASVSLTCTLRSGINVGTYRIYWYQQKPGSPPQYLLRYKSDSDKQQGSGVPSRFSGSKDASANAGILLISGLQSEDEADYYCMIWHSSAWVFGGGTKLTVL
VH: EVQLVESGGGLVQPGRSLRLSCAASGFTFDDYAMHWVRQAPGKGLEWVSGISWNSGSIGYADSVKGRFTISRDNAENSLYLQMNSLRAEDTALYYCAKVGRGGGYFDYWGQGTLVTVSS

Substitutions are numbered in sequence along the VH above, starting at 1 (not Kabat). Every variant below is changed at F27 of the VH (sequential numbering). Values are apparent Kd, the geometric mean of the replicates that gave a signal; lower means stronger binding. Where no diploid with the target was found in any replicate, the entry reads "nd": below detection, most likely a poor binder, though not proof of it. In this assay the parent's reference entry averaged 72 nM; its copy inside this library read 7.5 nM.

F27R T28I F29I: nd (0 of 3 replicates).
F27E V99W: nd (0 of 3 replicates).
F27A G50D Y60D: nd (0 of 3 replicates).
F27A S52G K65D: nd (0 of 3 replicates).
F27H Y32I G100C: 32 µM (3 of 3 replicates).
F27H A33N M34H: nd (0 of 3 replicates).
G26F F27C A61Y: 8.2 µM (1 of 3 replicates).
F27R A33H K65L: 11 µM (1 of 3 replicates).
F27W T28Y G59C: nd (0 of 3 replicates).
F27K Y32I G103E: 1.6 mM (1 of 3 replicates).
F27H T28Q G102R: 70 µM (3 of 3 replicates).
F27H G104R: 8.3 µM (1 of 3 replicates).
F27C A33Q G103Y: 110 µM (2 of 3 replicates).
F27M D30G: 16 µM (3 of 3 replicates).
F27Y I58H: nd (0 of 3 replicates).
F27W N54W A61P: 92 µM (1 of 3 replicates).
F27D F106L: 13 µM (2 of 3 replicates).
F27E G103K: 38 µM (1 of 3 replicates).
F27C A33K G100R: 260 nM (1 of 3 replicates).
F27D S52M K65F: 480 µM (2 of 3 replicates).
F27A S55V Y108C: 62 µM (3 of 3 replicates).
G26D F27S G100V: nd (0 of 3 replicates).
F27A I51A I58N: nd (0 of 3 replicates).
F27M R101V Y108D: 3.8 µM (3 of 3 replicates).
F27V A61P: 4.4 µM (1 of 3 replicates).
F27V D30N I51G: 350 µM (2 of 3 replicates).
F27D V99E: 2.7 µM (1 of 3 replicates).
F27A D62Y: 390 nM (1 of 3 replicates).
F27R G59A K65F: 94 µM (1 of 3 replicates).
F27E G59K F106W: 25 µM (2 of 3 replicates).
F27H Y60T: 110 nM (3 of 3 replicates).
F27A D30N A61W: nd (0 of 3 replicates).
F27M G50W G59A: 200 µM (3 of 3 replicates).
F27N I51E Y108M: 240 µM (1 of 3 replicates).
F27K D30K H35W: 51 µM (1 of 3 replicates).
F27G F29Y D31S: 120 µM (1 of 3 replicates).
F27V R101C D107V: 15 µM (3 of 3 replicates).
F27H D62C G100K: nd (0 of 3 replicates).
F27Y D31V V99S: nd (0 of 3 replicates).

Repeated from above, the 6 best binders with a signal in all replicates:

F27H Y60T: 110 nM (3 of 3 replicates).
F27M R101V Y108D: 3.8 µM (3 of 3 replicates).
F27V R101C D107V: 15 µM (3 of 3 replicates).
F27M D30G: 16 µM (3 of 3 replicates).
F27H Y32I G100C: 32 µM (3 of 3 replicates).
F27A S55V Y108C: 62 µM (3 of 3 replicates).

Background: pairings of library AAYL51 with three empty control strains gave a value in 21% of cases (median 34 µM, 5th percentile 1.8 µM). Values in that range, when seen in few replicates, are hard to tell from nonspecific mating.